Our source for the IC50 values is ChEMBL document CHEMBL3407416, “Discovery of (R)-8-(1-(3,5-difluorophenylamino)ethyl)-N,N-dimethyl-2-morpholino-4-oxo-4H-chromene-6-carboxamide (AZD8186): a potent and selective inhibitor of PI3Kβ and PI3Kδ for the treatment of PTEN-deficient cancers” (J Med Chem, 2015).

By UniProt entry, the sequences of proteins in these tests, tags left out. Where a name states a change or a piece, a line headed by the entry shows the natural chain unless it says otherwise.
UniProt P42338: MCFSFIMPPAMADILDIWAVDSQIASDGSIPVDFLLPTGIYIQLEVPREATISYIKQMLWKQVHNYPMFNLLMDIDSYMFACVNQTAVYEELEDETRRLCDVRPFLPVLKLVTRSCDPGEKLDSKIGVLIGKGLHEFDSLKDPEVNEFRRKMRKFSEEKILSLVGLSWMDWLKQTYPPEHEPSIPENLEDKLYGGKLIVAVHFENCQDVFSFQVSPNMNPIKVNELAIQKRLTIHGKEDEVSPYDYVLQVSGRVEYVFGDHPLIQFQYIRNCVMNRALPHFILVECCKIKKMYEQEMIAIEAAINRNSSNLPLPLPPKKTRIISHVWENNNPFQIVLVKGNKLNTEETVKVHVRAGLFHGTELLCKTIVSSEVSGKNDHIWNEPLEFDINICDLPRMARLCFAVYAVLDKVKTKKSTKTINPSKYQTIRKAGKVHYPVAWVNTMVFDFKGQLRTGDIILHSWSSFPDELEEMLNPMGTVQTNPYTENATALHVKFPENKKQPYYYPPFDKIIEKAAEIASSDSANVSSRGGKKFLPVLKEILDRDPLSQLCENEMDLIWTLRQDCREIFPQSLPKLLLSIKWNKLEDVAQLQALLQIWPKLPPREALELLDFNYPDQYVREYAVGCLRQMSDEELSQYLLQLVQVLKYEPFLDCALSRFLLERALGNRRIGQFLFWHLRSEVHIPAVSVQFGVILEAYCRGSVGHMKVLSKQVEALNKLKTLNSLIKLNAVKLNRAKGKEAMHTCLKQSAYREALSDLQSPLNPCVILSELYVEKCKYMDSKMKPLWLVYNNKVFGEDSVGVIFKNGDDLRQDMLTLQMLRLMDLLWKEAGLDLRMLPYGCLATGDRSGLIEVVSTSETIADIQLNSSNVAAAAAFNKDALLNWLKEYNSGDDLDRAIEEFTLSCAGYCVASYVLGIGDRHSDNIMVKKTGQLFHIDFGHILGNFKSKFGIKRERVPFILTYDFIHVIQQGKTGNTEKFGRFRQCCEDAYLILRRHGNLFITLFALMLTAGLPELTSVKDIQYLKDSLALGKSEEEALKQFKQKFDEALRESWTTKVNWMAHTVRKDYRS

As a reminder, the pIC50 is −log10 of the IC50, conventionally taken in molar units.

Assay [1] addresses T1, Phosphatidylinositol 4,5-bisphosphate 3-kinase catalytic subunit beta isoform (Homo sapiens, UniProt P42338). In words: Inhibition of human recombinant PI3Kbeta using PIP2 by Kinase-Glo Plus assay. On the technique in general: Kinase-Glo measures the ATP left after a reaction by luminescence.
The target in assay [2] is T1, Phosphatidylinositol 4,5-bisphosphate 3-kinase catalytic subunit beta isoform. In words: Inhibition of PI3Kbeta in PTEN-null human MDA-MB-468 cells assessed as inhibition of Akt phosphorylation after 2 hrs. The format is cell-based.

pIC50: −log10 of the molar value.

For the compound `C[C@H](c1cc(C(=O)N(C)C)cc2c(=O)cc(N3CCOCC3)oc12)N(C)c1cc(F)cc(F)c1`, the pIC50 in assay [1] was 8.15; in assay [2] it was 7.82.

Consider `C[C@@H](Nc1cc(F)cc(F)c1)c1cc(C(=O)N(C)C)cc2c(=O)cc(N3CCOCC3)oc12` [AZD-8186], for which the pIC50 was 8.40 in assay [1] and 8.52 in assay [2].

As to `C[C@@H](Nc1cc(F)cc(F)c1)c1cc(C(=O)N2CCC2)cc2c(=O)cc(N3CCOCC3)oc12`, the pIC50 was 8.40 in assay [1] and 8.70 in assay [2].

Take `C[C@@H](Nc1cc(F)cc(Cl)c1)c1cc(C(=O)N(C)C)cc2c(=O)cc(N3CCOCC3)oc12`: the pIC50 was 8.30 in assay [1] and 9.00 in assay [2].
